Measurements reported in patent US9856499B2, “Long chain organic acid bioproduction” (dated 2018).

How the values were obtained:
[1] = test system: Clostridium acetobutylicum; test: Effect of electron carrier dyes on the pattern of metabolites
[2] = cited from earlier work

Compound | effect on butyrate versus acetate production / metabolite profile [1] | ratio of butyrate to acetate ([1]; 50 uM, CGM medium, 50 hours) | redox potential ([2]; midpoint potential from the standard hydrogen electrode at pH 7) [V] | redox potential ([2]; no unit)
methyl viologen | do not show the same effect | – | – | –
O=C(O)c1cccc2nc3ccccc3nc12 | – | much higher ratio of butyrate to acetate | −0.116 | −0.113
CN(C)c1ccc2nc3ccc(=[N+](C)C)cc-3sc2c1 | do not show the same effect | – | – | –

Read-outs that look alike come from different tables or passages of the source.
